Values quoted from earlier work as cited in patent US20160034667A1, “TAILORED DRUG THERAPIES AND METHODS AND SYSTEMS FOR DEVELOPING SAME” (COMPANION DX REFERENCE LAB, LLC, priority 2014, published 2016).

Structure (SMILES)	Therapeutic Range (in vivo)	Therapeutic Range, trough (trough)
CCN(CC)CCNC(=O)c1ccc(N)cc1	PA 4-10 mg/L,	–
C=C[C@H]1C[N@@]2CC[C@H]1C[C@@H]2[C@@H](O)c1ccnc2ccc(OC)cc12 [Quinidine]	–	trough 2.3-5.0 mg/L
